# scFv variants of Ab-91 (heavy chain) against a SARS-CoV-2 spike peptide

Data: MIT Lincoln Laboratory AlphaSeq set, Engelhart et al. 2022, doi:10.1038/s41597-022-01779-4, as distributed in FLAb.

Target: peptide PDVDLGDISGINAS, taken from heptad repeat 2 (HR2) of SARS-CoV-2 spike.

Ab-91 is the parent antibody, in scFv form: VL, then a 15-residue (Gly4Ser)3 linker, then VH. The light chain is unchanged in all variants.
VL: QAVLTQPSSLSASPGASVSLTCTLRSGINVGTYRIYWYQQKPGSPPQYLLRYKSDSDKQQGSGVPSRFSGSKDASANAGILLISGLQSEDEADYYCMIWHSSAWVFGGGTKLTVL
VH: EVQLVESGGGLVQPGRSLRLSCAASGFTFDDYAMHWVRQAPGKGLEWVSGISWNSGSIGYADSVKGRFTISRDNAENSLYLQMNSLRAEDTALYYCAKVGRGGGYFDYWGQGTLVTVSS

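The parent was found by panning a naive human phage display library on the peptide. Variants in AAYL51 differ from the parent at up to three CDR positions; double and triple changes were sampled at random. The assay is AlphaSeq: two haploid yeast populations carry antibody and antigen on their surface. Pairs that bind mate more often; barcode pairs of the diploids are counted by sequencing. A regression on co-assayed BCL2-family reference pairs converts the normalised counts of each replicate to an apparent Kd. There are three technical replicates.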

Sequences are complete VH domains. Scale: log10 of Kd in nM, estimated from mating counts; low values are strong binders. Where no diploid with the target was found in that replicate, the entry reads "n.d.": below detection, most likely a poor binder, though not proof of it.

VH,log10 Kd (nM) by replicate,signal with controls
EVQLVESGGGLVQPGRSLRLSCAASGFTFDDYAMHWVRQAPGKGLEWVSGISWNSGNIGYADSVKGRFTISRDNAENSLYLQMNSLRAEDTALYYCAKVGCGGGYFDYWGQGTLVTVSS,n.d. n.d. n.d.,0/9
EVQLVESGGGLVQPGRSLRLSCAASGFTFDDYAFHWVRQAPGKGLEWVSGISWNSGGWGYADSVKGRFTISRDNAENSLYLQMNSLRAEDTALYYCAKVGRGGGYFDYWGQGTLVTVSS,n.d. n.d. n.d.,0/9
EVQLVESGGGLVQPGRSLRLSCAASGFTFDDYAMHWVRQAPGKGLEWVSGISWISGSIGYADSVKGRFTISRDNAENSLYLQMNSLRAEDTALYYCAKVGRGGGYFLYWGQGTLVTVSS,n.d. 5.32 4.25,2/9 (4.87)
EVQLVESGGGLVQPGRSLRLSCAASGFTFDDYAMHWVRQAPGKGLEWVSGIYWNSGSIGYADSTKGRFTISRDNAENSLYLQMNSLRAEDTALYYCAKVGRGGGYFDYWGQGTLVTVSS,n.d. 4.05 n.d.,1/9 (5.84)
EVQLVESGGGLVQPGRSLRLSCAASGFTFDDYAAHWVRQAPGKGLEWVSGISQNSGSIGYAMSVKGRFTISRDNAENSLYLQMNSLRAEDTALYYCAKVGRGGGYFDYWGQGTLVTVSS,n.d. n.d. n.d.,0/9
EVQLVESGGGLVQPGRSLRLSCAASGFTFDVYAMHWVRQAPGKGLEWVSGINWNSGSIGSADSVKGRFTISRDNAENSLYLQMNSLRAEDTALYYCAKVGRGGGYFDYWGQGTLVTVSS,n.d. n.d. n.d.,2/9 (4.21)
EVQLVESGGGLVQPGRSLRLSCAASGFTFDDYAMHWVRQAPGKGLEWVSGIRWNSGSIGYADSVKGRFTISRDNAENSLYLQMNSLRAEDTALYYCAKVGRGGGYFDYWGQGTLVTVSS,n.d. 4.32 5.25,1/9 (4.53)
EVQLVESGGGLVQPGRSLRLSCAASGFTFDDYAMHWVRQAPGKGLEWVSGISWNSGSIGYWDRVKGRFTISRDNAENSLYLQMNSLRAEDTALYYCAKVGRGGGYFDYWGQGTLVTVSS,n.d. n.d. n.d.,0/9
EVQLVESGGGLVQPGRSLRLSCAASGFAFDDYAMHWVRQAPGKGLEWVSGISWNSGIIGYADSVKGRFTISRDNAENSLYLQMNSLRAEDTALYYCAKVVRGGGYFDYWGQGTLVTVSS,5.65 n.d. n.d.,4/9 (3.50)
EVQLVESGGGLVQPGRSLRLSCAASGFTFDDYAAHWVRQAPGKGLEWVSGISWNSGSIGYADSVKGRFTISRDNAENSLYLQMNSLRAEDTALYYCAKVGRGEGYFDYWGQGTLVTVSS,n.d. 3.13 n.d.,0/9
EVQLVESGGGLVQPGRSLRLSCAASGFVFDCYAMHWVRQAPGKGLEWVSGISWNSGSIGYADSVKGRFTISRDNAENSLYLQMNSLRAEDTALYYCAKVGRGGGCFDYWGQGTLVTVSS,n.d. n.d. n.d.,0/9
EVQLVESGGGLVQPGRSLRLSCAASPFTFDDYCMHWVRQAPGKGLEWVSGISWNSCSIGYADSVKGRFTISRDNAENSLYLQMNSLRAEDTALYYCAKVGRGGGYFDYWGQGTLVTVSS,n.d. n.d. n.d.,0/9
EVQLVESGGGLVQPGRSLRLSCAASGFTIDDYAMHWVRQAPGKGLEWVSGISWNSGSIGYADSVKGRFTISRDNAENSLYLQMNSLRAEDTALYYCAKVGRGGGYFDYWGQGTLVTVSS,1.83 1.91 1.33,3/9 (4.67)
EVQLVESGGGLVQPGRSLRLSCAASGFTFDGYAMHWVRQAPGKGLEWVSCISWNSGSIGYADSVKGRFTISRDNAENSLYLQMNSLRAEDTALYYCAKVGRGDGYFDYWGQGTLVTVSS,3.78 n.d. n.d.,1/9 (5.47)
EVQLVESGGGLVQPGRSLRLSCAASGETFDDYAMHWVRQAPGKGLEWVSVISLNSGSIGYADSVKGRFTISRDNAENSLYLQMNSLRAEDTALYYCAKVGRGGGYFDYWGQGTLVTVSS,n.d. n.d. n.d.,4/9 (5.11)
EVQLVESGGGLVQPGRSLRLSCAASGFTKDDYAMHWVRQAPGKGLEWVSGISCNSGSIGYKDSVKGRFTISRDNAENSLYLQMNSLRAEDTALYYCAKVGRGGGYFDYWGQGTLVTVSS,3.04 3.15 2.16,1/9 (4.33)
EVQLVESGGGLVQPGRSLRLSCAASGFTFDDYAMHWVRQAPGKGLEWVSGMSWNSGSIHYIDSVKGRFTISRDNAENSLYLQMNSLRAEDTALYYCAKVGRGGGYFDYWGQGTLVTVSS,4.48 3.92 n.d.,4/9 (4.60)
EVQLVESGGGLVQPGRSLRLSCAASGFTFDPYAMHWVRQAPGKGLEWVSGISWNSGSIDYADSVKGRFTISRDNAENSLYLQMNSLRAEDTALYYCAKVGRGGGYNDYWGQGTLVTVSS,4.54 5.41 5.26,5/9 (4.81)
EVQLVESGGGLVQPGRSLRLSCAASGFTFDDYAMHWVRQAPGKGLEWVSGNSWSCGSIGYADSVKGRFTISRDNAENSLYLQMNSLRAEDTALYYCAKVGRGGGYFDYWGQGTLVTVSS,4.58 n.d. 3.48,1/9 (3.90)

The last 3 entries again:

VH,log10 Kd (nM) by replicate,signal with controls
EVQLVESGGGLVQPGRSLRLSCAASGFTFDDYAMHWVRQAPGKGLEWVSGMSWNSGSIHYIDSVKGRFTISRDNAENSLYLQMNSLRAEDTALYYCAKVGRGGGYFDYWGQGTLVTVSS,4.48 3.92 n.d.,4/9 (4.60)
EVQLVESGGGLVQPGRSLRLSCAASGFTFDPYAMHWVRQAPGKGLEWVSGISWNSGSIDYADSVKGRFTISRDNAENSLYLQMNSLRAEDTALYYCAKVGRGGGYNDYWGQGTLVTVSS,4.54 5.41 5.26,5/9 (4.81)
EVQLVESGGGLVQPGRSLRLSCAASGFTFDDYAMHWVRQAPGKGLEWVSGNSWSCGSIGYADSVKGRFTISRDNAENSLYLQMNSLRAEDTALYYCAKVGRGGGYFDYWGQGTLVTVSS,4.58 n.d. 3.48,1/9 (3.90)

Background: pairings of library AAYL51 with three empty control strains gave a value in 21% of cases (median 4.54, 5th percentile 3.26). Values in that range, when seen in few replicates, are hard to tell from nonspecific mating. For each scFv, signals with the empty controls are counted beside the result, with their mean in brackets.